Values of other authors, collected in paper PMC10363981, “Optimizing the enzymatic release of MMAE from isoDGR-based small molecule drug conjugate by incorporation of a GPLG-PABC enzymatically cleavable linker” (Frontiers in Pharmacology, 2023).

Tested on: U87MG human glioblastoma cancer cell lines
Conditions: ref Dias et al., 2019, cited from earlier work

cyclo[DKP-isoDGR]-PEG4-VA-PABC-MMAE (head to tail) [compound 1]
loss of potency of the conjugate compared to the free drug (U87MG): two orders of magnitude
IC50 on U87MG human glioblastoma cancer cell lines: low nanomolar
